Data on 1 compound can be found in patent publication US20220016092A1, “METHODS FOR TREATING SYMPTOMS AND DISORDERS ASSOCIATED WITH LYSOSOMAL STORAGE DISEASES” (GENZYME CORPORATION, priority 2019, published 2022).

Holding throughout (type): in vivo, human
Data set [1] can be described thus: Study 1 Part 1: ascending single-dose pharmacokinetics in healthy volunteers. The note with it: healthy men, single oral doses 2 to 150 mg. The source says: (§1) Study 1 was a 2-part single-center trial in healthy adult male volunteers. Part 1 was a double-blind, randomized, placebo-controlled sequential ascending single-dose study of Compound 2 for safety, tolerability, and PK. Part 2 was an open-label, single-cohort, randomized, 2-sequence, 2-period, 2-treatment crossover study of Compound 2 for PK with and without a high-fat meal.
(§2) Part 1 of the study enrolled and randomized 55 healthy men (placebo, n=14; 2-, 5-, 15, 25-, 50, and 100-mg doses, n=6 each; 150-mg dose, n=5). Eight healthy men participated in Part 2.
In Part 1 the subjects were randomized to receive 2, 5, 15, 25, 50, 100, or 150 mg of Compound 2 (L-malic salt form) or matching placebo on the morning of the first day after at least a 10-hour fast. In Part 2, the subjects were randomized to receive a single oral dose of 5 mg Compound 2 either while fasting (at least 10 hours before and 4 hours after administration) or 30 minutes after a standardized high-fat breakfast (˜815 kcal). […]
In Study 1, Part 1, blood was sampled for plasma concentrations of Compound 2 at the time of study drug administration (0 hour) and 0.5, 1, 2, 3, 4, 5, 6, 8, 10, 12, 16, 24, 48, 72, and 96 hours post-dose. Urine samples were collected for analysis of Compound 2 concentrations beginning 2 hours before study drug administration through 48 hours afterward.

Data set [2] in a line: Study 1 Part 2: pharmacokinetics with and without a high-fat meal. The note with it: healthy men, single oral 5 mg dose.
Description: as §1, §2
In Part 1 the subjects were randomized to receive 2, 5, 15, 25, 50, 100, or 150 mg of Compound 2 (L-malic salt form) or matching placebo on the morning of the first day after at least a 10-hour fast. In Part 2, the subjects were randomized to receive a single oral dose of 5 mg Compound 2 either while fasting (at least 10 hours before and 4 hours after administration) or 30 minutes after a standardized high-fat breakfast (˜815 kcal). After a 7-day washout period, participants were crossed over to the other condition.
In Study 1, Part 2, blood was sampled for plasma concentrations if Compound 2 at 0, 0.5, 1, 2, 3, 4, 5, 6, 8, 10, 12, 16, 24, and 48 hours post-dose.

Data set [3] in a line: Study 2: ascending repeated-dose pharmacokinetics in healthy volunteers. The note with it: healthy adults; for CLss/F, Mean (SD): Day 14 (N = 9).

Take `CC(C)(NC(=O)O[C@@H]1CN2CCC1CC2)c1csc(-c2ccc(F)cc2)n1` [Compound 2, (S)-quinuclidin-3-yl 2-(2-(4-fluorophenyl)thiazol-4-yl)propan-2-ylcarbamate]: in data set [1], the “Fold increase in geometric mean AUCinf for a 75-fold dose increase” value turned out to be 85.9 fold, the “Fold increase in geometric mean AUClast for a 75-fold dose increase” value is on record as 89.2 fold and the “Fold increase in geometric mean Cmax for a 75-fold dose increase” value is listed as 97.3 fold. In data set [2], the “Fed/fasted geometric mean ratio, AUClast” value is 0.91 and the “Fed/fasted geometric mean ratio, Cmax” value is 0.92. Besides, the “CLss/F, Mean (SD)” value in data set [3] (5 mg once daily) was 5.98 (1.17) L/h. Moreover, the “CLss/F, Mean (SD)” value in data set [3] (10 mg once daily) is recorded as 5.13 (1.25) L/h. The “CLss/F, Mean (SD)” value in data set [3] (20 mg once daily) was 6.58 (1.70) L/h. Further, in data set [3] (5-20 mg once daily, Day 14), the “Fold increase in geometric mean AUC0-24 for a 4-fold dose increase” value stood at 3.69 fold and the “Fold increase in geometric mean Cmax for a 4-fold dose increase” value is on record as 3.76 fold. Besides, the “Fold by which CLR(0-24) is lower than observed plasma CL/F” value in data set [3] (after 14 once-daily doses of 5, 10 or 20 mg) is listed as 3.18-3.86 fold.
